Assay results as given in PubChem BioAssay AID2129 (The Scripps Research Institute Molecular Screening Center, 2009).
Only a part is listed here, and it is no random draw. Activity calls are given as the source filed them.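 How the source made its calls: active means inhibition above the mean of all tested compounds plus 3 SD, cutoff set per campaign (cut at about 30% in these data); inactive means the rest.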

Sequences of proteins named here, by UniProt entry; tags and fusion partners are left off.
UniProt Q07817, whole entry, looked up: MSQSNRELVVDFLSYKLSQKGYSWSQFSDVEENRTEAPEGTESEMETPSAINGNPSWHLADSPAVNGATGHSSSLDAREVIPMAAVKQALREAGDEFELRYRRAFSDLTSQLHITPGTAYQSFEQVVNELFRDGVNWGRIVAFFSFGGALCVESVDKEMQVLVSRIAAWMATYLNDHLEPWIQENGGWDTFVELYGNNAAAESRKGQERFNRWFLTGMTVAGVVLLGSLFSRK

target: Bcl-2-like protein 1 (Homo sapiens) (UniProt Q07817); assay: inhibitors of human Bcl-xL, primary screen, biochemical, fluorescence polarization, HTS (AID 2129); settings: GST-Bcl-xL / FITC-Bim BH3 peptide fluorescence polarization; at 10.9 µM; stronger effect = higher value;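 further: 0% = DMSO wells and 100% = unlabeled Bim-BH3 peptide competitor; inhibitors lower millipolarization by displacing the labeled peptide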

Row | SMILES | inhibition
1 | CCOC(=O)c1ccc(NC(=O)C(C)(CCl)SC)cc1 (centres undefined) | inactive: -3.46%
2 | O=C(OC1CN2CCC1CC2)c1cccc([N+](=O)[O-])c1 (centres undefined) | inactive: 2.42%
3 | CCC(C)N(CC(C)C)C(=S)SC(NC(C)=O)C(Cl)(Cl)Cl (centres undefined) | inactive: 12.2%
4 | CCOC(=O)Nc1ccc([As](=O)(O)O)c(O)c1 | inactive: -1.77%
5 | Cc1cc(SC(NC(=O)c2ccccc2)C(Cl)(Cl)Cl)nc(C(C)C)n1 (centres undefined) | inactive: 9.25%
6 | CCOC(=O)Nc1cccc([As](=O)(O)O)c1 | inactive: 2.86%
7 | Cc1cc(SC(NC=O)C(Cl)(Cl)Cl)ncn1 (centres undefined) | inactive: 14.2%
8 | O=P(Nc1ccccn1)(c1cccc2ccccc12)c1cccc2ccccc12 | inactive: 4.98%
9 | O=C(Nc1cc([As](=O)(O)O)ccc1O)c1ccccc1 | inactive: 5.66%
10 | CC(C)(C)C(=O)NC(Sc1ccncn1)C(Cl)(Cl)Cl (centres undefined) | inactive: 18%
11 | O=[N+]([O-])c1ncn(CCn2ncnc2[N+](=O)[O-])n1 | inactive: -0.64%
12 | O=[N+]([O-])c1cccc(NC2=NCC(CBr)S2)c1 (centres undefined) | inactive: 3.48%
13 | COc1ccc(C2=NCC(CBr)S2)cc1 (centres undefined) | inactive: -0.13%
14 | CC(=O)N1C2C3N(C(C)=O)C1C1N(C(C)=O)C(C(N1C(C)=O)N3C(C)=O)N2C(C)=O | inactive: 2.24%
15 | O=[N+]([O-])c1cccc2n[nH]nc12 | inactive: 1.18%
16 | Cc1ccc(NP(=O)(Oc2ccccc2)Oc2ccccc2)nc1 | inactive: -2.37%
17 | O=[N+]([O-])c1cc([N+](=O)[O-])c(CCNc2ccccc2)c([N+](=O)[O-])c1 | inactive: -2.69%
18 | CCc1nc2c(n1)c1c(non1O)c1c2no[n+]1[O-] | inactive: 4.77%
19 | Nc1ccc([As](=O)(O)c2ccc(N)cc2)cc1 | inactive: -1.71%
20 | C[N+]1=C2C=CC=CC=C2SC12C([N+](=O)[O-])=CC([N+](=O)[O-])=C[C-]2[N+](=O)[O-] (centres undefined) | inactive: 27.4%
21 | CCN(/C(=N/P(=O)(N1CCOCC1)N1CCOCC1)N1CCOCC1)c1ccc(OC)cc1 | inactive: 2.39%
22 | CC(C)=N/N=C(\N)N[N+](=O)[O-] | inactive: 3.61%
23 | CN(C)C(=O)OCCc1n(C)cc[n+]1C | inactive: 4.57%
24 | CC1CCN(C(=O)Oc2c(Cl)cc(Cl)c3cccnc23)CC1 | inactive: -0.96%
25 | NC(=O)c1cc([N+](=O)[O-])cc([N+](=O)[O-])c1N | inactive: 2.25%
26 | CN(C(=O)Cc1ccc(Cl)c(Cl)c1)[C@H]1CCCC[C@H]1N1CCCC1 | inactive: 3.99%
27 | Cc1ccc(N/C(=N/P(=O)(N2CCOCC2)N2CCOCC2)N2CCOCC2)cc1 | inactive: 6.26%

Row | SMILES | inhibition
28 | COc1ccccc1OP(=O)(Nc1ccc(C)cn1)Oc1ccccc1OC | inactive: 0.29%
29 | Cc1ccc(OP(=O)(Nc2nccs2)Oc2ccc(C)cc2)cc1 | inactive: 6.04%
30 | Clc1ccc(Cl)c(NC2=NCC(CBr)S2)c1 (centres undefined) | inactive: 1.7%
31 | CN1CCCC(OC(=O)C(c2ccccc2)c2ccccc2)C1 (centres undefined) | inactive: -2.24%
32 | CC(C)CC(=O)NC(Sc1ccc(Cl)cc1)C(Cl)(Cl)Cl (centres undefined) | inactive: -0.75%
33 | Nc1cc(N)c2nonc2c1[N+](=O)[O-] | inactive: -2.36%
34 | Oc1ccccc1CNc1ccccn1 | inactive: 2.71%
35 | Cc1c2non([O-])c-2c(C)[n+](=O)[n+]1[O-] | inactive: -0.85%
36 | O=C(O)c1ccccc1[As](=O)(O)O | inactive: 3.15%
37 | CC(=O)Nc1ccc([As](=O)(O)O)cc1 | inactive: 6.34%
38 | O=P(Nc1nc2ccc(Cl)cc2s1)(c1ccccc1)c1ccccc1 | inactive: 2.23%
39 | CCOP(=O)(Nc1ccccc1)OCC | inactive: 10.5%
40 | Cc1cc(SC(NC(=O)c2ccc(F)cc2)C(Cl)(Cl)Cl)ncn1 (centres undefined) | inactive: 9.69%
41 | CN(C(=O)Cc1ccc(Cl)c(Cl)c1)[C@H]1CCCC[C@@H]1N1CCCC1 | active: 34.6%
42 | Cc1ccc(NP(=O)(Oc2ccccc2F)Oc2ccccc2F)nc1 | inactive: 1.67%
43 | O=[N+]([O-])c1cc([N+](=O)[O-])c(CCN2CCOCC2)c([N+](=O)[O-])c1 | inactive: 13.8%
44 | CCN(N=Nc1nonc1N)c1nonc1N | inactive: 1.96%
45 | O=C(NC1CCS(=O)(=O)C1)NP(=S)(Oc1ccccc1)Oc1ccccc1 (centres undefined) | inactive: 5.41%
46 | CCNC(=S)/N=C(\N)N[N+](=O)[O-] | inactive: -0.45%
47 | c1ccc(-c2nn[nH]n2)c(-c2nn[nH]n2)c1 | inactive: 2.93%
48 | Cc1ccc(NP(=O)(Oc2cccc(C)c2)Oc2cccc(C)c2)nc1 | inactive: 3.54%
49 | CCOC(=O)NC(Sc1ccccc1)C(Cl)(Cl)Cl (centres undefined) | inactive: 4.94%
50 | COC(=O)c1cc2c(s1)N=C(c1ccccc1)N(C)P2(=O)N1CCOCC1 (centres undefined) | inactive: 7.42%
51 | CC(=O)NC(SC(=S)N(CC(C)C)CC(C)C)C(Cl)(Cl)Cl (centres undefined) | inactive: -0.27%
52 | Cc1ccc(OP(=O)(Nc2ccccn2)Oc2ccc(C)cc2)cc1 | inactive: -0.65%
53 | O=C(OC1CN2CCC1CC2)c1ccccc1 (centres undefined) | inactive: -1.69%
54 | CCC(=O)N1C2C3N(C(=O)CC)C1C1N(C(=O)CC)C(C(N1C(=O)CC)N3C(=O)CC)N2C(=O)CC | inactive: -1.23%

Row | SMILES | inhibition
55 | Cc1ccccc1OP(=O)(Nc1ccccn1)Oc1ccccc1C | inactive: 4.22%
56 | CN(C)C(=O)Oc1noc2ccccc12 | inactive: 2.45%
57 | O=P1(Nc2nc3ccc(Cl)cc3s2)COc2ccccc2O1 (centres undefined) | inactive: 5.6%
58 | CCOc1ccc(C2=NCC(CBr)S2)cc1 (centres undefined) | inactive: 1.98%
59 | CC(C)(C)C(=O)NC(Sc1ccccc1)C(Cl)(Cl)Cl (centres undefined) | inactive: 0.88%
60 | CC(=O)c1ccc(N2CC2c2ccncc2)cc1 (centres undefined) | inactive: 6.56%
61 | Cc1ccccc1CN(C)C(=O)COC(=O)C(O)(c1ccccc1)c1ccccc1 | inactive: -0.6%
62 | C[C@@H]1C=CCP(=O)(Oc2ccccc2)O1 (some centres undefined) | inactive: 3.03%
63 | C[C@H]1OP(=O)(Oc2ccccc2)C[C@@H]2O[C@@H]21 (some centres undefined) | inactive: -1.37%
64 | CC(=O)Nc1ccc([As](=O)(O)O)c(O)c1 | inactive: 1.06%
65 | CC(=O)Nc1ccc(Oc2c([N+](=O)[O-])cc([N+](=O)[O-])cc2[N+](=O)[O-])cc1 | inactive: 7.32%
66 | O=P(Nc1nccs1)(c1ccccc1)c1ccccc1 | inactive: 2.77%
67 | CC(C)C(=O)NC(Sc1ccccc1)C(Cl)(Cl)Cl (centres undefined) | inactive: 3.4%
68 | c1nnnn1CCn1cnnn1 | inactive: 2.25%
69 | CN(C)C1(CNC(=O)c2ccc(Cl)c(S(N)(=O)=O)c2)CCCCC1 | inactive: -1.2%
70 | O=P(Nc1ccccn1)(c1ccc(Br)cc1)c1ccc(Br)cc1 | inactive: 2.97%
71 | O=P(Nc1nc2ccccc2s1)(c1ccccc1)c1ccccc1 | inactive: 0.39%
72 | C[C@H]1OP(=O)(Oc2ccccc2)[C@H](O)[C@H](O)[C@H]1N=[N+]=[N-] (some centres undefined) | inactive: 3.13%
73 | CC(=O)NC(SC(=S)N(C)C)C(Cl)(Cl)Cl (centres undefined) | inactive: 4.52%
74 | O=[N+]([O-])c1ncn(CCn2cnc([N+](=O)[O-])n2)n1 | inactive: 3.41%
75 | O=[N+]([O-])c1ccc(O)c(/C=N/Nc2ccc([N+](=O)[O-])cc2[N+](=O)[O-])c1 | inactive: 0.68%
76 | O=[As](O)(c1ccccc1)c1ccc(O)cc1 | inactive: 2.32%
77 | Nc1ccc([As](=O)(O)c2ccc([N+](=O)[O-])cc2)cc1 | inactive: 0.83%
78 | C(Cc1nn[nH]n1)Cc1nn[nH]n1 | inactive: 1.75%
79 | O=C(OC1CN2CCC1CC2)c1cccc(Cl)c1 (centres undefined) | inactive: 1.48%
